SMILES strings stand for the structures. Several values for one entry are separate records, joined by “and”; a condition that tells them apart may be missing. Equal entries are not always repeated. The list shows a part of the results, in another mix than the full data. Records with an inconclusive call do not appear. Activity calls are given as the source filed them. Unless noted, calls come from the whole dose curve; as a rule, active = well fitted curve in the direction sought with a large enough effect in the repeat runs; inconclusive = weak or mixed curves; inactive = no such curve, though single readings can be large; an effect the other way counts as inactive or inconclusive.

Protein sequences, listed by entry. Tags and fused reporters are not part of them.
UniProt Q14994, whole entry: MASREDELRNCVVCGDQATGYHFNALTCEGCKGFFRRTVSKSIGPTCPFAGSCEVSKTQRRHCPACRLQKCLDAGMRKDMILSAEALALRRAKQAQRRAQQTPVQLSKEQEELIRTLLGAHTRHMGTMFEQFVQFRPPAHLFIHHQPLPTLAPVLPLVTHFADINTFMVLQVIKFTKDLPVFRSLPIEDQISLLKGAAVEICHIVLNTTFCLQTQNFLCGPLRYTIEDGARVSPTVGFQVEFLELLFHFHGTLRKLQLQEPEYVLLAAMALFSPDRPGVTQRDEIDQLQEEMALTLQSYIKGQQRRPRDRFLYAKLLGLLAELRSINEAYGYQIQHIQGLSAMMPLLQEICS
UniProt P34981, whole entry: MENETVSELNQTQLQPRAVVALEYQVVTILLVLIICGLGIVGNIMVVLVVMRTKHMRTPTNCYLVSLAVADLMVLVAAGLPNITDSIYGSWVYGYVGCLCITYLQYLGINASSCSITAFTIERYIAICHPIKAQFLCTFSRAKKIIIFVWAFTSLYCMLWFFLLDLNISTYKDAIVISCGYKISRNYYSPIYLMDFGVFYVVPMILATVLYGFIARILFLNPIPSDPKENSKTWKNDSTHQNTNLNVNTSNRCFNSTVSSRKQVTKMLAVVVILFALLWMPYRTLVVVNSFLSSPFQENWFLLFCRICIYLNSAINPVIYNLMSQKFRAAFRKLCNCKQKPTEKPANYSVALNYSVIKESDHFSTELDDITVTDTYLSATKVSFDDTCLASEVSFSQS

Consider three compounds from PubChem BioAssay (Tox21).

A short description of test [1]: qHTS assay for small molecule disruptors of the mitochondrial membrane potential (AID 720635). Note: potency is the fitted concentration of half-maximal effect. As to conditions: HepG2 mitochondrial membrane potential, Mito-MPS dye ratio. The gist of the method: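 HepG2 cells (2,000/well) attached overnight at 37C, then took compound for 1 hr at 37C, 5% CO2. Mito-MPS dye was added for 30 min; fluorescence was read at 490/535 nm (monomers) and 540/590 nm (aggregates).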
(In qHTS, concentration-response curves come from the screen itself.)

The nature of test [2]: qHTS assay to identify aromatase inhibitors - cell viability counter screen (AID 743084).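 Note: cells stimulated with testosterone during compound exposure; potency is the fitted concentration of half-maximal effect; nearly all actives have a fitted effect of over 55% in size.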
In test [3] the target is Nuclear receptor ROR-gamma (Homo sapiens) (UniProt P51449). The test can be described thus: qHTS assay to identify small molecule antagonists of the retinoid-related orphan receptor gamma (ROR-gamma) signaling pathway (AID 1159521; note: potency is the fitted concentration of half-maximal effect; nearly all actives have a fitted effect of over 50% in size). As to conditions: Tet-on RORgamma CHO cells, RORE-luciferase, 16 h.
Test [4] can be described thus: qHTS assay to identify small molecule agonists of the AP-1 signaling pathway - cell viability counter screen (AID 1159525; calls by dose curve; note: potency is the fitted concentration of half-maximal effect; nearly all actives have a fitted effect of over 55% in size). As to conditions: ME-180 (cervical carcinoma) AP-1-bla cells viability, ATP luminescence, 5 h. The gist of the method:
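ME-180 AP-1-bla, 2500 cells/well, Opti-MEM + 0.5% dialyzed FBS; overnight 37 °C; cpd 15-pt titration, 5 h 37 °C; CellTiter-Glo 30 min RT; luminescence read; normalised to TOAB and DMSO controls.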

A short description of test [5]: qHTS assay to identify small molecule agonists of the RXR signaling pathway - cell viability counter screen (AID 1159529). Note: potency is the fitted concentration of half-maximal effect; nearly all actives have a fitted effect of over 50% in size. As to conditions: RXR-alpha-bla HEK293T viability, CellTiter-Glo, 16 h. The gist of the method: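 In this parallel viability measure, GeneBLAzer RXR-alpha HEK 293T cells (2% charcoal-stripped FBS) were given a 5 hr preincubation, treated with compounds 16 hr at 37 C, and read by CellTiter-Glo luminescence.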

Test [6] addresses Nuclear receptor subfamily 1 group I member 3 (Homo sapiens) (UniProt Q14994). Put plainly: qHTS assay to identify small molecule agonists of the constitutive androstane receptor (CAR) signaling pathway (AID 1224839). Note: potency is the fitted concentration of half-maximal effect; nearly all actives have a fitted effect of over 15% in size.
The nature of test [7]: qHTS assay to identify small molecule antagonists of the estrogen related receptor signaling pathway with the pleiotropic PPARgamma coactivator (PGC) from Tox21 10K library - cell viability counter screen (AID 1224840; active = well fitted cell-killing curve with a large enough effect in the repeat runs, not every such curve was filed as active; note: % is set by controls: 0 for no effect and ±100 for the full control effect; nearly all actives have a fitted effect of over 40% in size). The gist of the method: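 PGC/ERR cells (2,000/well) plated 6 h, then compound-treated for 17.5 h at 37 C. Viability measured by CellTiter-Fluor fluorescence after 30 min at 37 C, multiplexed with the pathway assay.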

Test [8] is described as follows: A CellTox Green Cytotoxicity Assay to monitor cytotoxicity in HEK293 cells - 40 hour (AID 1224871). Note: potency is the fitted concentration of half-maximal effect; nearly all actives have a fitted effect of over 45% in size. As to conditions: CellTox Green fluorescence. The gist of the method: (§1)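 HEK293 cells, 600/well, were preincubated 5 hours and then exposed to compounds at 37 C for up to 40 hours. A cell-impermeant cyanine dye staining dead-cell DNA was read by fluorescence at 0, 8, 16, 24, 32 and 40 h time points.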

Test [9] is described as follows: A CellTox Green Cytotoxicity Assay to monitor cytotoxicity in HEK293 cells - 24 hour (AID 1224875). Note: potency is the fitted concentration of half-maximal effect; nearly all actives have a fitted effect of over 45% in size. As to conditions: CellTox Green fluorescence. The gist of the method:
as §1

Test [10] is described as follows: A CellTox Green Cytotoxicity Assay to monitor cytotoxicity in HepG2 cells - 40 hour (AID 1224879). Note: potency is the fitted concentration of half-maximal effect; nearly all actives have a fitted effect of over 40% in size. The gist of the method: (§2)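 HepG2 cells, 600/well, preincubated 5 h with CellTox Green dye, then exposed to Tox21 compounds in DMSO at 37 C for up to 40 h. Dead-cell DNA fluorescence read at the indicated time point.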
Test [11] is described as follows: A CellTox Green Cytotoxicity Assay to monitor cytotoxicity in HEK293 cells - 32 hour (AID 1224881). Note: potency is the fitted concentration of half-maximal effect; nearly all actives have a fitted effect of over 40% in size. As to conditions: CellTox Green fluorescence. The gist of the method:
as §1

The nature of test [12]: A CellTox Green Cytotoxicity Assay to monitor cytotoxicity in HEK293 cells - 8 hour (AID 1224884). Note: potency is the fitted concentration of half-maximal effect; nearly all actives have a fitted effect of over 35% in size. The gist of the method: as §1
Test [13] in a line: A CellTox Green Cytotoxicity Assay to monitor cytotoxicity in HEK293 cells - 16 hour (AID 1224888). Note: potency is the fitted concentration of half-maximal effect; nearly all actives have a fitted effect of over 35% in size. As to conditions: CellTox Green fluorescence. The gist of the method:
as §1

Test [14] can be described thus: A CellTox Green Cytotoxicity Assay to monitor cytotoxicity in HepG2 cells - 8 hour (AID 1224890). Note: potency is the fitted concentration of half-maximal effect; nearly all actives have a fitted effect of over 45% in size. As to conditions: CellTox Green fluorescence. The gist of the method: as §2
A short description of test [15]: qHTS assay to identify small molecule antagonists of the estrogen receptor alpha (ER-alpha) signaling pathway using the BG1 cell line in the presence of 0.1 nM 17-beta-estradiol - cell viability counter screen (AID 1259241). Note: potency is the fitted concentration of half-maximal effect; nearly all actives have a fitted effect of over 40% in size. As to conditions: VM7Luc4E2 (BG1) viability, CellTiter-Fluor protease, 22 h; 0.1 nM estradiol agonist added. The gist of the method: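 Estradiol-stimulated (0.1 nM) VM7Luc4E2 cells exposed to compounds 22 hr; viability measured by fluorescence of cleaved CellTiter-Fluor substrate after 30 min.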

Test [16] can be described thus: qHTS assay to identify small molecule antagonists of the sonic hedgehog signaling (Shh) pathway - cell viability counter screen (AID 1259367). Note: potency is the fitted concentration of half-maximal effect; nearly all actives have a fitted effect of over 55% in size. As to conditions: NIH/3T3 Gli1-Luc viability, CellTiter-Fluor, 24 h. The gist of the method: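 After a 4 hr settling period, 3T3 Gli1-Luc cells were treated with DMSO-dissolved chemicals and conditioned medium, kept 24 hr at 37C in 5% CO2, and assayed for viability by CellTiter-Fluor fluorescence following 1 hr reagent incubation.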

Test [17] is described as follows: qHTS assay to identify small molecule antagonists of the sonic hedgehog signaling (Shh) pathway (AID 1259369; calls by dose curve; note: potency is the fitted concentration of half-maximal effect; nearly all actives have a fitted effect of over 45% in size). As to conditions: NIH/3T3 Gli1-Luc reporter, Shh antagonist, luminescence 24 h. The gist of the method:
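NIH/3T3-derived Gli1-Luc reporter cells plated 4 h, dosed with compound, then stimulated with conditioned medium for 24 h at 37 C. Firefly luciferase luminescence read after 30 min with detection reagent at room temperature.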

A short description of test [18]: qHTS assay to identify small molecule agonists of the androgen receptor (AR) signaling pathway in the presence of an antagonist - cell viability counter screen (AID 1259379). Note: potency is the fitted concentration of half-maximal effect; nearly all actives have a fitted effect of over 25% in size. As to conditions: MDA-kb2 viability, CellTiter-Fluor, 16 h. The gist of the method: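 MDA-kb2 cells (MMTV-luciferase, AR/GR), 3,000/well, 5 h attachment, then 3.0 µM nilutamide (final) and compounds at 15 concentrations. Viability by CellTiter-Fluor fluorescence after 16 h at 37 °C, 0% CO2, in the reporter wells.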

Test [19] is described as follows: qHTS assay to identify small molecule antagonists of the progesterone receptor (PR) signaling pathway - cell viability counter screen (AID 1346798). Note: nearly all actives have a fitted effect of over 50% in size. Note: potency is the fitted concentration of half-maximal effect. The gist of the method: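 Following a 4 hr attachment, PR-UAS-bla HEK293T cells in charcoal-stripped FBS medium were exposed to compounds with R5020 for 16 hr; CellTiter-Glo was added and luminescence read after 30 min at room temperature.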

Test [20] concerns the target Thyrotropin-releasing hormone receptor (Homo sapiens) (UniProt P34981). Put plainly: qHTS assay to identify small molecule agonists of the thyrotropin-releasing hormone receptor (TRHR) signaling pathway (AID 1346891; calls by dose curve; note: potency is the fitted concentration of half-maximal effect). As to conditions: TRHR-HEK293 calcium fluorescence, agonist mode.
Test [21] is described as follows: Caspase-3/7 induction in CHO-K1 cells by small molecules, qHTS cell viability counter screen (AID 1346979). Note: potency is the fitted concentration of half-maximal effect; nearly all actives have a fitted effect of over 35% in size. The gist of the method:
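CellTiter-Fluor viability check, qHTS format: wild-type CHO-K1, 16hr compound treatment, 1hr reagent incubation, fluorescence read.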

A short description of test [22]: qHTS assay to identify small molecule agonists of the estrogen receptor alpha (ER-alpha) signaling pathway in the presence of an antagonist - cell viability counter screen (AID 1259386).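 Note: cells exposed to compounds for 22 h at 37 °C before the viability read; % is set by controls: 0 for no effect and ±100 for the full control effect; nearly all actives have a fitted effect of over 30% in size.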 The gist of the method:
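Cell viability in VM7Luc4E2 cells (endogenous full-length ER-alpha) measured by CellTiter-Fluor fluorescence in the same wells as the luciferase screen. Cells pre-cultured 5 days in charcoal-stripped serum, then treated 22 h with compounds at 15 concentrations plus 10.0nM ICI-182,780.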

The target of test [23] is Thyrotropin-releasing hormone receptor (Homo sapiens) (UniProt P34981). Put plainly: qHTS assay to identify small molecule antagonists of the thyrotropin-releasing hormone receptor (TRHR) signaling pathway (AID 1346877; active = well fitted inhibition curve with a large enough effect in the repeat runs, not every such curve was filed as active; note: % is set by controls: 0 for no effect and ±100 for the full control effect). As to conditions: TRHR-HEK293, TRH-induced calcium fluorescence, antagonist mode; at 51.3 µM (top of the series).

As to `Cc1ccc([N+](=O)[O-])c([N+](=O)[O-])c1`, the Potency was active: 62.4 µM and active: 61.1 µM in test [1]; active: 62.4 µM in [2]; active: 31.3 µM and active: 43.3 µM in test [3]; active: 56.1 µM in test [4]; active: 31.5 µM in test [5]; active: 34.4 µM in test [6]. Moreover, the Potency is active: 17.4 µM in [8]; active: 15.5 µM in test [9]; active: 17.4 µM in [10]; active: 15.5 µM in test [11]; active: 15.5 µM in [12]; active: 15.5 µM in test [13]. Also, the Potency in [14] was active: 15.5 µM; in test [15], active: 62.4 µM; in test [16] it was active: 49.5 µM; in test [17], active: 22.1 µM and active: 43.3 µM; in test [18] it was active: 62.4 µM; in [19] it was active: 55.6 µM. In addition, the Potency is active: 12.3 µM in test [20] and active: 55.6 µM in test [21]. Further, the Potency result in [7] is “inactive”.

As for `O=[N+]([O-])c1ccc(S(=O)(=O)O)c([N+](=O)[O-])c1`, the Potency result in test [22] and in test [19] was “inactive” throughout.

For `CCOC(=O)Cl`, the activity, negative = inhibition in [23] is inactive: -1.49%.
